# Source: PubChem BioAssay AID493131 (Broad Institute, 2011)
# By UniProt entry, the sequences of proteins in these tests, tags left out. Where a name states a change or a piece, a line headed by the entry shows the natural chain unless it says otherwise.
# UniProt P13346: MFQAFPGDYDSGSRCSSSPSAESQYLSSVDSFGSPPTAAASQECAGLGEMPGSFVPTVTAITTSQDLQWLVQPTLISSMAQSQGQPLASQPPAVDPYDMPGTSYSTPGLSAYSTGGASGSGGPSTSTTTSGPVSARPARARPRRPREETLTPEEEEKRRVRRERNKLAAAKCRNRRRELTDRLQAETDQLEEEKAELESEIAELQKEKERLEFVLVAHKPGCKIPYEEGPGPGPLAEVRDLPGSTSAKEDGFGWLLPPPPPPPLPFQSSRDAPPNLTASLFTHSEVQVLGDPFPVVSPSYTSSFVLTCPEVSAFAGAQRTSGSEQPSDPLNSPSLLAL
# The list shows a part of the results, in another mix than the full data. Active and inactive are the calls of the source.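 Rule for the calls: active = mean activation above about 17%, with every replicate also reaching it (limit read from the data, passing the limit was not always enough); inconclusive = only one of the two conditions met; inactive = the rest.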
# Biological target: Protein FosB (Mus musculus) (UniProt P13346)
# Experiment: activators of delta FosB homodimer, primary screen, biochemical, fluorescence polarization, TAMRA-CDK5 oligo, single point (AID 493131);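 note: fluorescence polarization rise as delta FosB binds a TAMRA Cdk5 AP-1 oligo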
# Conditions: purified delta FosB, at 25 µM, stronger effect = higher value, percent of positive-control signal above neutral wells
row,Compound,activation
1,O=C(OC1CN2CCC1CC2)c1cccc([N+](=O)[O-])c1 (configuration not stated),inactive: 0.201%
2,CCOC(=O)c1ccc(NC(=O)C(C)(CCl)SC)cc1 (configuration not stated),inactive: 0.168%
3,CCC(C)N(CC(C)C)C(=S)SC(NC(C)=O)C(Cl)(Cl)Cl (configuration not stated),inactive: -0.823%
4,COP1(=S)c2c(C)nn(CCC#N)c2N=C(c2ccc(F)cc2)N1C (configuration not stated),inactive: -7.15%
5,O=C(Nc1ccncc1[N+](=O)[O-])c1ccc([N+](=O)[O-])cc1[N+](=O)[O-],inactive: 7.78%
6,O=C(COc1ccccc1)OC1CN2CCC1CC2 (configuration not stated),inactive: 2.19%
7,CCOC(=O)Nc1cccc([As](=O)(O)O)c1,inactive: -2.56%
8,O=P(Nc1ccccn1)(c1cccc2ccccc12)c1cccc2ccccc12,inactive: -1.18%
9,Cc1cc(SC(NC=O)C(Cl)(Cl)Cl)ncn1 (configuration not stated),inactive: -9.44%
10,O=[N+]([O-])c1ccc(Nc2ccc(Oc3ccc([N+](=O)[O-])cc3[N+](=O)[O-])cc2)c([N+](=O)[O-])c1,inactive: -3.82%
11,CCOC(=O)Nc1ccc([As](=O)(O)O)c(O)c1,inactive: -4.7%
12,CC1CCNP(=O)(N(CCCl)CCCl)O1 (configuration not stated),inactive: -4.92%
13,Cc1cc(SC(NC(=O)c2ccccc2)C(Cl)(Cl)Cl)nc(C(C)C)n1 (configuration not stated),inactive: -2.89%
14,CCCCOc1ccc(C(=O)NCC2(N3CCCCC3)CCCCC2)cc1OC,inactive: -1.38%
15,ClCCSc1nnc(-c2cccnc2)o1,inactive: -4.11%
16,CC(C)c1ccc(OP(=O)(Nc2ccccn2)Oc2ccccc2F)cc1 (configuration not stated),inactive: -10.4%
17,COC(=O)C1(C)COP(=O)(N2CCCCCC2)OC1 (configuration not stated),inactive: -6.09%
18,O=[N+]([O-])c1cc([N+](=O)[O-])c(-c2ccn[nH]2)s1,inactive: -8.03%
19,O=C(OC1CN2CCC1CC2)c1cccc2[nH]cnc12 (configuration not stated),inactive: 6.42%
20,CCN(CC)C(=S)SC(NC=O)C(Cl)(Cl)Cl (configuration not stated),inactive: 0.536%
21,CC(C)NC(=O)NP(=O)(Oc1ccccc1)Oc1ccccc1,inactive: -2.76%

row,Compound,activation
1,COc1cc(C(=O)NCC2(N3CCOCC3)CCCCC2)ccc1OCC(C)C,inactive: -12%
2,O=[N+]([O-])c1ccc(-c2cc([N+](=O)[O-])c(O)c([N+](=O)[O-])c2)cc1,inactive: -3.09%
3,C[As](=O)(O)c1cccc(C(=O)O)c1,inactive: 4.24%
4,O=[As](O)(c1ccc(O)cc1)c1ccccc1O,inactive: -7.85%
5,Cc1ccc(OP(=O)(Nc2ccc([N+](=O)[O-])cn2)Oc2ccc(C)cc2)cc1,inactive: -15.4%
6,Cc1ccc2nc3c(c(C)c2c1)CC(C(Cl)Cl)S3 (configuration not stated),inactive: -12.6%
7,O=[N+]([O-])c1cc(Oc2ccc([N+](=O)[O-])cc2C(F)(F)F)cc([N+](=O)[O-])c1,inactive: 6.07%
8,COc1ccc(N/C(=N/P(=O)(N2CCOCC2)N2CCOCC2)N2CCOCC2)cc1,inactive: 4.82%
9,Cc1c2c(nc3ccccc13)SC(C(Cl)Cl)C2 (configuration not stated),inactive: -12.3%
10,Cc1cc(=O)[nH]c(N[N+](=O)[O-])n1,inactive: -5.55%
11,O=C(OC1CN2CCC1CC2)C12CC3CC(CC(C3)C1)C2 (configuration not stated),inactive: -2.65%
12,O=P1(N(CCCl)CCCl)OCCCN1CCCl (configuration not stated),inactive: 6.93%
13,O=P1(N(CCCl)CCCl)Nc2ccccc2N1,inactive: -1.13%
14,COc1cc(I)ccc1[As](=O)(O)O,inactive: -4.63%
15,COc1ccc2nc(NP(=O)(c3ccccc3)c3ccccc3)sc2c1,inactive: -11%
16,Nc1cccc2c([As](=O)(O)O)cccc12,inactive: -30.7%
17,Cc1ccc(NCCc2c([N+](=O)[O-])cc([N+](=O)[O-])cc2[N+](=O)[O-])cc1,inactive: -3.17%
18,CCCOP(=S)(Nc1nc(N)cc(=O)[nH]1)OCCC,inactive: -3.34%
19,CCOP(=O)(Nc1cccc2ccccc12)OCC,inactive: 1.17%
20,COc1cc(C2NCCC3(OCCO3)C2(C)C)cc(OC)c1OC (configuration not stated),inactive: -7.52%
21,O=C(OC1CN2CCC1CC2)c1ccc(Cl)cc1 (configuration not stated),inactive: 2.52%

row,Compound,activation
1,CS(=O)(=O)c1ccc(Cl)c(NC(=O)COC(=O)C(O)(c2ccccc2)c2ccccc2)c1,inactive: -6.16%
2,COc1cc(C(=O)NCC2(N3CCOCC3)CCCCC2)cc(Cl)c1OC(C)C,inactive: -10.5%
3,O=[As](O)(O)c1cccnc1,inactive: -1.79%
4,O=[As](O)(c1cccc(O)c1)c1cccc(O)c1,inactive: -5.37%
5,Cc1cccc(OCC(=O)OC2CN3CCC2CC3)c1 (configuration not stated),inactive: 2.6%
6,NC(=O)Nc1ccc([As](=O)(O)O)cc1,inactive: -3.02%
7,CCOP1(=S)c2c(C)nn(CCC#N)c2N=C(c2ccc(F)cc2)N1C (configuration not stated),inactive: 0.517%
8,CN(C(=O)Cc1ccccc1)[C@@H]1CC[C@]2(CCCO2)C[C@H]1N1CCCC1,inactive: -5.98%
9,N#CCCN(C(=O)COC(=O)C(O)(c1ccccc1)c1ccccc1)c1ccc(F)cc1,inactive: -1.12%
10,CN(C(=O)Cc1ccc(Cl)c(Cl)c1)[C@H]1CC[C@@]2(CCCO2)C[C@@H]1N1CCCC1,inactive: -1.89%
11,CN(C)C(=O)c1cc([N+](=O)[O-])cc2c1-c1c(cc([N+](=O)[O-])cc1[N+](=O)[O-])C2=O,inactive: -1.3%
12,O=[N+]([O-])c1ccc2c(c1)nnn2O,inactive: -1.05%
13,O=P(Nc1nccs1)(c1ccccc1)c1nc2ccccc2s1 (configuration not stated),inactive: -4.69%
14,O=P(Nc1nccs1)(Oc1ccccc1)Oc1ccccc1,inactive: 3.01%
15,CCOP1(=S)c2c(C)nn(CCC#N)c2N=C(c2ccccc2F)N1C (configuration not stated),inactive: -9.79%
16,CS(=O)(=O)c1cc([N+](=O)[O-])c2no[n+]([O-])c2c1,inactive: -5.53%
17,Nc1ccccc1[As](=O)(O)c1ccccc1,inactive: -1.35%
18,O=C(O)COc1ccc([As](=O)(O)O)cc1[N+](=O)[O-],inactive: 0.865%
19,O=P1(Nc2ncccn2)COc2ccccc2OC1,inactive: -5.39%
20,Nc1cccc([As](=O)(O)c2ccccc2)c1,inactive: 1.74%
